Some results for these compounds are left out of this collection, so the calls shown say nothing about other tests.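 Method: 48-hour compound exposure of cells in 96-well plates, five concentrations, linear interpolation of endpoints. Here, GI50 denotes the concentration required for 50% inhibition of growth. TGI is the concentration that stops growth completely.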
Tests used:
Assay in all cases: DTP human tumour cell line panel, 48 h
A549 NSCLC = test system: A549 NSCLC
MCF7 breast = test system: MCF7 breast
TK-10 renal = test system: TK-10 renal
SF-295 CNS = test system: SF-295 CNS
NCI-H522 lung = test system: NCI-H522 lung
LOX IMVI melanoma = test system: LOX IMVI melanoma
MDA-MB-231 breast = test system: MDA-MB-231 breast
SW-620 colon = test system: SW-620 colon
SNB-75 CNS = test system: SNB-75 CNS
OVCAR-8 ovarian = test system: OVCAR-8 ovarian
EKVX NSCLC = test system: EKVX NSCLC
HT29 colon = test system: HT29 colon
RXF 393 renal = test system: RXF 393 renal
SR leukemia = test system: SR leukemia
SK-MEL-5 melanoma = test system: SK-MEL-5 melanoma
SN12C renal = test system: SN12C renal
ACHN renal = test system: ACHN renal
CCRF-CEM leukemia = test system: CCRF-CEM leukemia
786-0 renal = test system: 786-0 renal
M14 melanoma = test system: M14 melanoma
HOP-62 NSCLC = test system: HOP-62 NSCLC
NCI/ADR-RES ovarian = test system: NCI/ADR-RES ovarian
SK-MEL-2 melanoma = test system: SK-MEL-2 melanoma
HOP-92 NSCLC = test system: HOP-92 NSCLC
NCI-H460 lung = test system: NCI-H460 lung
SK-MEL-28 melanoma = test system: SK-MEL-28 melanoma
HCC-2998 colon = test system: HCC-2998 colon
MOLT-4 leukemia = test system: MOLT-4 leukemia
U251 CNS = test system: U251 CNS
SF-268 CNS = test system: SF-268 CNS
NCI-H23 lung = test system: NCI-H23 lung
A498 renal = test system: A498 renal
IGROV1 ovarian = test system: IGROV1 ovarian
KM12 colon = test system: KM12 colon
OVCAR-5 ovarian = test system: OVCAR-5 ovarian
MALME-3M melanoma = test system: MALME-3M melanoma
RPMI-8226 leukemia = test system: RPMI-8226 leukemia
MDA-N = test system: MDA-N
HCT-15 colon = test system: HCT-15 colon
T-47D breast = test system: T-47D breast
K-562 leukemia = test system: K-562 leukemia
CAKI-1 renal = test system: CAKI-1 renal
SNB-19 CNS = test system: SNB-19 CNS
OVCAR-4 ovarian = test system: OVCAR-4 ovarian
UACC-257 melanoma = test system: UACC-257 melanoma
NCI-H226 lung = test system: NCI-H226 lung
HCT-116 colon = test system: HCT-116 colon
HS 578T breast = test system: HS 578T breast
UACC-62 melanoma = test system: UACC-62 melanoma
OVCAR-3 ovarian = test system: OVCAR-3 ovarian
SF-539 CNS = test system: SF-539 CNS
MDA-MB-435 = test system: MDA-MB-435
NCI-H322M lung = test system: NCI-H322M lung
HL-60(TB) leukemia = test system: HL-60(TB) leukemia
DU-145 prostate = test system: DU-145 prostate
PC-3 prostate = test system: PC-3 prostate
COLO 205 colon = test system: COLO 205 colon

With `C/C=C\C(O)(C(=O)OC1CN2CCC1CC2)C1CCCC1` (centres undefined) the GI50 (A549 NSCLC) was over 100 µM, the TGI (A549 NSCLC) was over 100 µM and the GI50 (MCF7 breast) was over 100 µM. For the same molecule, the TGI (MCF7 breast) was over 100 µM, the GI50 (TK-10 renal) was over 100 µM and the TGI (TK-10 renal) was over 100 µM. For the same molecule, the GI50 (SF-295 CNS) was over 100 µM, the TGI (SF-295 CNS) was over 100 µM and the GI50 (NCI-H522 lung) was over 100 µM. For the same molecule, the TGI (NCI-H522 lung) was over 100 µM, the GI50 (LOX IMVI melanoma) was over 100 µM and the TGI (LOX IMVI melanoma) was over 100 µM. For the same molecule, the GI50 (MDA-MB-231 breast) was over 100 µM, the TGI (MDA-MB-231 breast) was over 100 µM and the GI50 (SW-620 colon) was 45 µM. For the same molecule, the TGI (SW-620 colon) was over 100 µM, the GI50 (SNB-75 CNS) was 77.5 µM and the TGI (SNB-75 CNS) was over 100 µM. The GI50 (OVCAR-8 ovarian) was over 100 µM, the TGI (OVCAR-8 ovarian) was over 100 µM and the GI50 (EKVX NSCLC) was over 100 µM. For the same molecule, the TGI (EKVX NSCLC) was over 100 µM, the GI50 (HT29 colon) was over 100 µM and the TGI (HT29 colon) was over 100 µM. The GI50 (RXF 393 renal) was over 100 µM, the TGI (RXF 393 renal) was over 100 µM and the GI50 (SR leukemia) was over 100 µM. It also gave a TGI (SR leukemia) of over 100 µM, a GI50 (SK-MEL-5 melanoma) of over 100 µM and a TGI (SK-MEL-5 melanoma) of over 100 µM. It also gave a GI50 (SN12C renal) of over 100 µM, a TGI (SN12C renal) of over 100 µM and a GI50 (ACHN renal) of over 100 µM. The TGI (ACHN renal) was over 100 µM, the GI50 (CCRF-CEM leukemia) was over 100 µM and the TGI (CCRF-CEM leukemia) was over 100 µM. The GI50 (786-0 renal) was over 100 µM, the TGI (786-0 renal) was over 100 µM and the GI50 (M14 melanoma) was over 100 µM. The TGI (M14 melanoma) was over 100 µM, the GI50 (HOP-62 NSCLC) was over 100 µM and the TGI (HOP-62 NSCLC) was over 100 µM. The GI50 (NCI/ADR-RES ovarian) was over 100 µM, the TGI (NCI/ADR-RES ovarian) was over 100 µM and the GI50 (SK-MEL-2 melanoma) was over 100 µM. For the same molecule, the TGI (SK-MEL-2 melanoma) was over 100 µM, the GI50 (HOP-92 NSCLC) was 49.1 µM and the TGI (HOP-92 NSCLC) was over 100 µM. For the same molecule, the GI50 (NCI-H460 lung) was over 100 µM, the TGI (NCI-H460 lung) was over 100 µM and the GI50 (SK-MEL-28 melanoma) was over 100 µM. The TGI (SK-MEL-28 melanoma) was over 100 µM, the GI50 (HCC-2998 colon) was over 100 µM and the TGI (HCC-2998 colon) was over 100 µM. The GI50 (MOLT-4 leukemia) was over 100 µM, the TGI (MOLT-4 leukemia) was over 100 µM and the GI50 (U251 CNS) was over 100 µM. For the same molecule, the TGI (U251 CNS) was over 100 µM, the GI50 (SF-268 CNS) was over 100 µM and the TGI (SF-268 CNS) was over 100 µM. For the same molecule, the GI50 (NCI-H23 lung) was over 100 µM, the TGI (NCI-H23 lung) was over 100 µM and the GI50 (A498 renal) was over 100 µM. The TGI (A498 renal) was over 100 µM, the GI50 (IGROV1 ovarian) was over 100 µM and the TGI (IGROV1 ovarian) was over 100 µM. For the same molecule, the GI50 (KM12 colon) was over 100 µM, the TGI (KM12 colon) was over 100 µM and the GI50 (OVCAR-5 ovarian) was over 100 µM. For the same molecule, the TGI (OVCAR-5 ovarian) was over 100 µM, the GI50 (MALME-3M melanoma) was over 100 µM and the TGI (MALME-3M melanoma) was over 100 µM. For the same molecule, the GI50 (RPMI-8226 leukemia) was over 100 µM, the TGI (RPMI-8226 leukemia) was over 100 µM and the GI50 (MDA-N) was over 100 µM. For the same molecule, the TGI (MDA-N) was over 100 µM, the GI50 (HCT-15 colon) was over 100 µM and the TGI (HCT-15 colon) was over 100 µM. For the same molecule, the GI50 (T-47D breast) was over 100 µM, the TGI (T-47D breast) was over 100 µM and the GI50 (K-562 leukemia) was over 100 µM. For the same molecule, the TGI (K-562 leukemia) was over 100 µM, the GI50 (CAKI-1 renal) was over 100 µM and the TGI (CAKI-1 renal) was over 100 µM. For the same molecule, the GI50 (SNB-19 CNS) was 59.2 µM, the TGI (SNB-19 CNS) was over 100 µM and the GI50 (OVCAR-4 ovarian) was over 100 µM. It also gave a TGI (OVCAR-4 ovarian) of over 100 µM, a GI50 (UACC-257 melanoma) of over 100 µM and a TGI (UACC-257 melanoma) of over 100 µM. It also gave a GI50 (NCI-H226 lung) of over 100 µM, a TGI (NCI-H226 lung) of over 100 µM and a GI50 (HCT-116 colon) of over 100 µM. The TGI (HCT-116 colon) was over 100 µM, the GI50 (HS 578T breast) was over 100 µM and the TGI (HS 578T breast) was over 100 µM. It also gave a GI50 (UACC-62 melanoma) of over 100 µM, a TGI (UACC-62 melanoma) of over 100 µM and a GI50 (OVCAR-3 ovarian) of over 100 µM. It also gave a TGI (OVCAR-3 ovarian) of over 100 µM, a GI50 (SF-539 CNS) of over 100 µM and a TGI (SF-539 CNS) of over 100 µM. It also gave a GI50 (MDA-MB-435) of over 100 µM, a TGI (MDA-MB-435) of over 100 µM and a GI50 (NCI-H322M lung) of over 100 µM. It also gave a TGI (NCI-H322M lung) of over 100 µM, a GI50 (HL-60(TB) leukemia) of over 100 µM and a TGI (HL-60(TB) leukemia) of over 100 µM. The GI50 (DU-145 prostate) was over 100 µM, the TGI (DU-145 prostate) was over 100 µM and the GI50 (PC-3 prostate) was over 100 µM. It also gave a TGI (PC-3 prostate) of over 100 µM, a GI50 (COLO 205 colon) of over 100 µM and a TGI (COLO 205 colon) of over 100 µM.
